From PubChem BioAssay (Tox21) come the findings set out here.

Sequences of proteins named here, by UniProt entry; tags and fusion partners are left off. A change or cut given only in a name is not applied to a line headed by its entry.
UniProt P06401: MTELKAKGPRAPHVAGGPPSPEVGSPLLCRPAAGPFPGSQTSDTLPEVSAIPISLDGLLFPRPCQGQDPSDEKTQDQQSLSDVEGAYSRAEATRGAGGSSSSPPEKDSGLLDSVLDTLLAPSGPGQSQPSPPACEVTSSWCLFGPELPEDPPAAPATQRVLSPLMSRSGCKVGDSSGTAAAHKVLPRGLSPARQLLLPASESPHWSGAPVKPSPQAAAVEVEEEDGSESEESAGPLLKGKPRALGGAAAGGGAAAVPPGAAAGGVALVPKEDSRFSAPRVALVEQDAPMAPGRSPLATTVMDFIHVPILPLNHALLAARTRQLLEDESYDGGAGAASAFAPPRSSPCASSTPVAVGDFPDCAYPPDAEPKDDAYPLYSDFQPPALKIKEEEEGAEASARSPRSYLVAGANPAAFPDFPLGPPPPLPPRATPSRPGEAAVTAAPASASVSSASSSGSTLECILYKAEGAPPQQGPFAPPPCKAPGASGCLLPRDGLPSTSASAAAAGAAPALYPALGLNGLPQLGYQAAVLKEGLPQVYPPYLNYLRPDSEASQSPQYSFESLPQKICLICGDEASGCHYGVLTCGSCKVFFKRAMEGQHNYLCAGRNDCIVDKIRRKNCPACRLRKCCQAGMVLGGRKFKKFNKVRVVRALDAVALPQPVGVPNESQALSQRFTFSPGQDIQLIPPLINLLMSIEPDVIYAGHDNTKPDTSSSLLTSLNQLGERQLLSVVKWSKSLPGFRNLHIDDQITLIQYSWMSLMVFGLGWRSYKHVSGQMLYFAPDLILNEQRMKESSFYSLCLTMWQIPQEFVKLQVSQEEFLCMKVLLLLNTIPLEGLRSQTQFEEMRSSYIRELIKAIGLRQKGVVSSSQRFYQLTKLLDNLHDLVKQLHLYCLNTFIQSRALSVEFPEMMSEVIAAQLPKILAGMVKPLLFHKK
UniProt P34981: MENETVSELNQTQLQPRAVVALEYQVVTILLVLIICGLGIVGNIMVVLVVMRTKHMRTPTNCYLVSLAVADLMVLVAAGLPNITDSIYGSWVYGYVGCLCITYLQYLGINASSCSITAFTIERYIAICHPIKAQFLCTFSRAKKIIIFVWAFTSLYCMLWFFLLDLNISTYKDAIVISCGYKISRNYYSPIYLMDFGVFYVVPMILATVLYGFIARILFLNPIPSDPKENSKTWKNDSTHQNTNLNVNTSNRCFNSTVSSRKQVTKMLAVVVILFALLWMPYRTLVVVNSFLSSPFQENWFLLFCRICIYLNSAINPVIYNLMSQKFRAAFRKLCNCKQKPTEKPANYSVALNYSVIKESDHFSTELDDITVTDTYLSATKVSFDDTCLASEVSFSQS
UniProt P22303: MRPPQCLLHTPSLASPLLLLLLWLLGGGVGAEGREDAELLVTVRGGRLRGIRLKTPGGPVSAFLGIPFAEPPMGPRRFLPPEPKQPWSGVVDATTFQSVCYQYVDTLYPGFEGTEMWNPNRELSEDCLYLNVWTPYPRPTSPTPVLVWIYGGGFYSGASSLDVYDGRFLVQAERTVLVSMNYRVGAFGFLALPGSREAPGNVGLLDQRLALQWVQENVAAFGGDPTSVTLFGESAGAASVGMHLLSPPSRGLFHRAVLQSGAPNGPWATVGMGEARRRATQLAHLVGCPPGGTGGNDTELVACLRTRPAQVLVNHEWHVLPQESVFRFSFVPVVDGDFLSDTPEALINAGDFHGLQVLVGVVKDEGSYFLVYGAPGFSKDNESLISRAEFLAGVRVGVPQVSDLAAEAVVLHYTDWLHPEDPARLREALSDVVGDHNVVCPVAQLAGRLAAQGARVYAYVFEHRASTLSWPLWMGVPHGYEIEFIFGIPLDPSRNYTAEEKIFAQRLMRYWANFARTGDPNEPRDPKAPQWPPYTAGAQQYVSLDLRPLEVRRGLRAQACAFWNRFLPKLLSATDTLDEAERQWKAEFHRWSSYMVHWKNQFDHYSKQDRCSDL
UniProt P33261, whole entry, looked up: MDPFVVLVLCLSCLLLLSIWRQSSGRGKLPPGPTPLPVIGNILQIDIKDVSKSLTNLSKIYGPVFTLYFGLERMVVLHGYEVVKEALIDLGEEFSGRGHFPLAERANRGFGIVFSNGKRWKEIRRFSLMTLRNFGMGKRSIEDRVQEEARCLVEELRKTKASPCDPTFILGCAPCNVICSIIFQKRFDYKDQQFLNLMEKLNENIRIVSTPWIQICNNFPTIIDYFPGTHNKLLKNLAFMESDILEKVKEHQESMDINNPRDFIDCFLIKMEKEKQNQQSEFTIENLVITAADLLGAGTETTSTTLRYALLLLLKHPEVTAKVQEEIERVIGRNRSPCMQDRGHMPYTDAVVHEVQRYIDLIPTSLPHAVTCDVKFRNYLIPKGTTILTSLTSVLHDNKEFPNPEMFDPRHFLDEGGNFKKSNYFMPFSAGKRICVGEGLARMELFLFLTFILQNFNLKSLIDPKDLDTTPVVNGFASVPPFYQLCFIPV
UniProt P11712, whole entry, looked up: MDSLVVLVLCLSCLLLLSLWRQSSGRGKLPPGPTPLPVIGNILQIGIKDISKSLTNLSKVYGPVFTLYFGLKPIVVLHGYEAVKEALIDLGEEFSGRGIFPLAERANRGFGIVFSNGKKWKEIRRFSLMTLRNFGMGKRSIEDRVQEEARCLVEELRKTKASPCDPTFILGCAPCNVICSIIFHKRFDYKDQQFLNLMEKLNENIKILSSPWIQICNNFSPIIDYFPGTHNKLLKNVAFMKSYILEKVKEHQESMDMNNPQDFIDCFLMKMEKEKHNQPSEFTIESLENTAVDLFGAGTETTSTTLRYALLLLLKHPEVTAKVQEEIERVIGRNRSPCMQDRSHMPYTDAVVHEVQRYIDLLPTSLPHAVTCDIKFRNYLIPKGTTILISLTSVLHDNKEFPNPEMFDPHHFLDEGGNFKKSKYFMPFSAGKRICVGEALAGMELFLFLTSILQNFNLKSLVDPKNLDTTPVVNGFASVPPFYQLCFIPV
UniProt P05177, whole entry, looked up: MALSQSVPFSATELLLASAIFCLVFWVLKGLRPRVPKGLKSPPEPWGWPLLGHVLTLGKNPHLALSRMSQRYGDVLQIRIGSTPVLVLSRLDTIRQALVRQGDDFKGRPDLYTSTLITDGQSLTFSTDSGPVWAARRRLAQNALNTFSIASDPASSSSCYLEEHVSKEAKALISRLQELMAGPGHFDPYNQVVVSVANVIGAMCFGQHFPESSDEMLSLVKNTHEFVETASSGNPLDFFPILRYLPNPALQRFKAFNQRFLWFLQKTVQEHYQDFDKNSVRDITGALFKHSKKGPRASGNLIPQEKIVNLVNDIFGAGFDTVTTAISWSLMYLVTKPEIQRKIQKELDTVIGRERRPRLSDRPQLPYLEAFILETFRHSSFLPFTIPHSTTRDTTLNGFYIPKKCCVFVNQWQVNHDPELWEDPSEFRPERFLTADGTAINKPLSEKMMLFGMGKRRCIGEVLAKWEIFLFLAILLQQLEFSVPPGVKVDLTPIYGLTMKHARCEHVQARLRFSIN
UniProt Q12809: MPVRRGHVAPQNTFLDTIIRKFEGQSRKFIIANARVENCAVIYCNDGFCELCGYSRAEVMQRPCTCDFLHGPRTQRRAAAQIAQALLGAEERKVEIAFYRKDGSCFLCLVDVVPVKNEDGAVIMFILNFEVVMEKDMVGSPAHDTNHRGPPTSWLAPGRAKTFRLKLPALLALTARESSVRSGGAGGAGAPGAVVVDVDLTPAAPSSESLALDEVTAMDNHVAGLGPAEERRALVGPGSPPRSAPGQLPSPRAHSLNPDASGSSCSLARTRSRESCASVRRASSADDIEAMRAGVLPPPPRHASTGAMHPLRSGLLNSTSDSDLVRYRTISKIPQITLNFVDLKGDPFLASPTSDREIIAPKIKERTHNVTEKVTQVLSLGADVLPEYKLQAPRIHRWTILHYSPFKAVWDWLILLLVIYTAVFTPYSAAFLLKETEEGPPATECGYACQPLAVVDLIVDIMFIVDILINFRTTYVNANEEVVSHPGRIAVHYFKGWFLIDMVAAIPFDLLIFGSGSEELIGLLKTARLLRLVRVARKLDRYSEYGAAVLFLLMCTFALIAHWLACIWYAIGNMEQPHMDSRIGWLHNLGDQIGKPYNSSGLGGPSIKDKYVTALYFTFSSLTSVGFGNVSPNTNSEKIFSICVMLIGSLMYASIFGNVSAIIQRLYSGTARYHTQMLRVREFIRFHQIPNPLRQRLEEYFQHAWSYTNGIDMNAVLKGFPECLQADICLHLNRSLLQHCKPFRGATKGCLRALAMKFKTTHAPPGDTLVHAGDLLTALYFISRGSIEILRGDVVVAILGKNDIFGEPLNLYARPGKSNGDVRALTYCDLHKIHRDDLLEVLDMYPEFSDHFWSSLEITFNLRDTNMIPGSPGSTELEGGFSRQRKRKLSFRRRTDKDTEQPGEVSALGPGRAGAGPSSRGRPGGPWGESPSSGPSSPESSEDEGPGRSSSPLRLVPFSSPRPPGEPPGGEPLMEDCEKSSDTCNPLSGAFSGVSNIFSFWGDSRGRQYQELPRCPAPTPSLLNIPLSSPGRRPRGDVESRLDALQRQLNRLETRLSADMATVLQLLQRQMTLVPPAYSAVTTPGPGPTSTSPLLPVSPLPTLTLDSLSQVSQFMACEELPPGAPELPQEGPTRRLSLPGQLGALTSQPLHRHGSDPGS
UniProt O75469: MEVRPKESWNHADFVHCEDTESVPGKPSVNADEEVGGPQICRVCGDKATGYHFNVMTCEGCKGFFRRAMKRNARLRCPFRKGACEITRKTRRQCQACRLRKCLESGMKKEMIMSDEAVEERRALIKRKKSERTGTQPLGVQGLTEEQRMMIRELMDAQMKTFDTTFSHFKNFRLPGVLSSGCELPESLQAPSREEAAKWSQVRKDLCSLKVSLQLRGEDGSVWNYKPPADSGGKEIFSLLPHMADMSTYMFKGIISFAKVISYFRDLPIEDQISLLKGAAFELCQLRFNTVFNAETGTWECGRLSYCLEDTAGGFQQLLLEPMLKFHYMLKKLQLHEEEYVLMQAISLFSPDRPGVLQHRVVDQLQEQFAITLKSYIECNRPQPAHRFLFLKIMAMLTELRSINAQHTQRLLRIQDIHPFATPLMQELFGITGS

The target in test [1] is Progesterone receptor (Homo sapiens) (UniProt P06401). Put plainly: qHTS assay to identify small molecule antagonists of the progesterone receptor (PR) signaling pathway (AID 1346795; active = well fitted inhibition curve with a large enough effect in the signal ratio in the repeat runs, not every such curve was filed as active; the % refers to the signal ratio; note: potency is the fitted concentration of half-maximal effect). The procedure, abridged: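 In HEK293T cells bearing the PR-UAS-bla reporter, compound effects on promegestone-driven (1 nM) beta-lactamase expression are assessed after 16 hr using a fluorescent FRET substrate incubated 2 hr at room temperature.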
In general terms: qHTS replaces the single test concentration by a dilution series.

Test [2] in a line: qHTS assay to identify small molecule agonists of the TGF-beta/Smad signaling pathway - cell viability counter screen (AID 1346829). Note: nearly all actives have a fitted effect of over 45% in size. Note: potency is the fitted concentration of half-maximal effect. The method in brief: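 Compound-treated SBE-bla HEK 293T cells (5 hr, 37 C) were assessed for viability with CellTiter-Glo in parallel with the reporter read.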
Test [3] is described as follows: qHTS assay to identify small molecule agonists of the TGF-beta/Smad signaling pathway (AID 1346859; active = well fitted activation curve with a large enough effect in the signal ratio in the repeat runs, not every such curve was filed as active; the % refers to the signal ratio). The following applies: SBE-bla HEK293T, TGF-beta/Smad beta-lactamase reporter, 5 h; at 76.8 µM (top of the series) unless noted. The procedure, abridged:
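Each well held 4,000 SBE-bla HEK 293T cells incubated overnight before compound addition; 5 hr later the cleavable FRET substrate went on for 2 hr at room temperature, and fluorescence was read at two emissions.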

For test [4], the target named is Thyrotropin-releasing hormone receptor (Homo sapiens) (UniProt P34981). Briefly: qHTS assay to identify small molecule antagonists of the thyrotropin-releasing hormone receptor (TRHR) signaling pathway (AID 1346877; active = well fitted inhibition curve with a large enough effect in the repeat runs, not every such curve was filed as active).
For test [5] the target is unchanged. Briefly: qHTS assay to identify small molecule agonists of the thyrotropin-releasing hormone receptor (TRHR) signaling pathway (AID 1346891; calls by dose curve;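 note: HEK293 cells expressing TRHR with calcium dye readout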). To be noted: TRHR-HEK293 calcium fluorescence, agonist mode; at 57.6 µM (top of the series) unless noted.
Test [6] is described as follows: Caspase-3/7 induction in CHO-K1 cells by small molecules, qHTS assay (AID 1346980). Note: nearly all actives have a fitted effect of over 15% in size. To be noted: CHO-K1 caspase-3/7 induction, Caspase-Glo luminescence, 17 h; at 92.4 µM (top of the series) unless noted. The method in brief: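 Wild-type cells were seeded at 1,500 per well and settled 5 hr at 37 C, 5% CO2, then exposed to DMSO-dissolved compounds for 17 hr. Caspase-Glo 3/7 reagent was added, and luminescence was read after 30min at room temperature.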

In test [7] the target is Acetylcholinesterase (Homo sapiens) (UniProt P22303). Put plainly: Acetylcholinesterase (AChE) small molecule antagonists: colormetric cell-based qHTS assay (AID 1347395; calls by dose curve; note: nearly all actives have a fitted effect of over 30% in size). The procedure, abridged:
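AChE inhibition read colorimetrically via DTNB–thiocholine in SH-SY5Y cells. Compound 30 min, substrate 90 min, both 37 C.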

For test [8] the target is unchanged. Put plainly: Acetylcholinesterase (AChE) small molecule antagonists: fluorescence cell-based qHTS assay (AID 1347398; calls by dose curve; note: nearly all actives have a fitted effect of over 50% in size). The following applies: Potency: AChE activity. The method in brief:
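Human SH-SY5Y cells were plated overnight at 37 C, exposed to compound for 30 min at 37 C, 5% CO2, then given acetylthiocholine plus Thiolite Green for 40 min at room temperature; thiocholine fluorescence (Ex/Em 490/520 nm) reports endogenous AChE activity.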

For test [9], the target named is Cytochrome P450 2C19 (Homo sapiens) (UniProt P33261). Put plainly: Cytochrome P450 Family 2 Subfamily C Member 19 (CYP2C19) small molecule antagonists: luciferase reporter qHTS assay (AID 1671197). Note: nearly all actives have a fitted effect of over 65% in size. Note: potency is the fitted concentration of half-maximal effect. The procedure, abridged: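 P450-Glo CYP2C19 screening system; proluciferin substrate; DMSO compound stocks; 10 min RT preincubation; NADPH regeneration, 1 h at 37C; luciferin detection reagent, 20 min RT; luminescence as RLU.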
(Reporter assays use an easily measured gene product as a stand-in for the process of interest.)

Test [10] deals with Cytochrome P450 2C9 (Homo sapiens) (UniProt P11712). Put plainly: Cytochrome P450 Family 2 Subfamily C Member 9 (CYP2C9) small molecule antagonists: luciferase reporter qHTS assay (AID 1671198). Note: nearly all actives have a fitted effect of over 50% in size. Note: potency is the fitted concentration of half-maximal effect. The method in brief:
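CYP2C9 activity was measured with a P450-Glo proluciferin substrate. Enzyme–substrate mix was held with compound for 10 min at room temperature, then NADPH regeneration solution was added for 1 h at 37C. Luciferin product was read as luminescence.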

Test [11] has as its target Cytochrome P450 1A2 (Homo sapiens) (UniProt P05177). Briefly: Cytochrome P450 Family 1 Subfamily A Member 2 (CYP1A2) small molecule antagonists: luciferase reporter qHTS assay (AID 1671199). Note: nearly all actives have a fitted effect of over 50% in size. Note: potency is the fitted concentration of half-maximal effect.
The target in test [12] is Voltage-gated inwardly rectifying potassium channel KCNH2 (Homo sapiens) (UniProt Q12809). Briefly: Human Ether-a-go-go-Related Gene (hERG) channel small molecule antagonists: fluorescence cell-based qHTS assay (AID 1671200).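 Note: hERG-expressing U2OS cells given a thallium stimulus after FluxOR II dye loading; nearly all actives have a fitted effect of over 50% in size.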 The method in brief:
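Kinetic two-minute fluorescence traces, sampled at 1 s, were collected following thallium stimulus of U2OS cells (1000 per well) that had been cultured overnight at 37 C and loaded with FluxOR II.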
(In general: Block of hERG is tested as a sign of cardiac risk.)

Test [13] in a line: qHTS assay to identify small molecule agonists of the estrogen receptor alpha (ER-alpha) signaling pathway in the presence of an antagonist - cell viability counter screen (AID 1259386).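 Note: cells exposed to compounds for 22 h at 37 °C before the viability read; nearly all actives have a fitted effect of over 30% in size.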 Note: potency is the fitted concentration of half-maximal effect. The method in brief:
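VM7Luc4E2 cells (endogenous full-length ER-alpha, 4×ERE-luciferase) were held 5 days in phenol red-free medium with 10% charcoal-stripped FBS, plated, then given 10.0nM ICI-182,780 and compounds at 15 concentrations for 22hr at 37C; viability read by CellTiter-Fluor fluorescence.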

Test [14] deals with Progesterone receptor (Homo sapiens) (UniProt P06401). Briefly: qHTS assay to identify small molecule agonists of the progesterone receptor (PR) signaling pathway (AID 1346784; calls by dose curve; note: nearly all actives have a fitted effect of over 30% in size). The procedure, abridged: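 Compounds were tested for PR agonism in HEK 293T cells bearing a beta-lactamase gene under UAS control. Treatment lasted 16 hr at 37C; signal came from fluorescence of a FRET substrate.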

Test [15] is described as follows: qHTS assay to identify small molecule antagonists of the progesterone receptor (PR) signaling pathway - cell viability counter screen (AID 1346798). Note: nearly all actives have a fitted effect of over 50% in size. The method in brief: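 Following a 4 hr attachment, PR-UAS-bla HEK293T cells in charcoal-stripped FBS medium were exposed to compounds with R5020 for 16 hr; CellTiter-Glo was added and luminescence read after 30 min at room temperature.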

Test [16] is described as follows: qHTS assay to identify small molecule agonists of the progesterone receptor (PR) signaling pathway - cell viability counter screen (AID 1346799; calls by dose curve; note: nearly all actives have a fitted effect of over 45% in size; note: potency is the fitted concentration of half-maximal effect). The method in brief:
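Here, 3,000 PR-UAS-bla HEK293T cells per well were treated with compounds for 16 hr after a 6 hr preincubation at 37C and 5% CO2; cell viability is the CellTiter-Glo luminescence signal.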

Test [17] is described as follows: Human pregnane X receptor (PXR) small molecule agonists, qHTS cell viability counter screen (AID 1346977). Note: nearly all actives have a fitted effect of over 50% in size. Note: potency is the fitted concentration of half-maximal effect. The procedure, abridged: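 Tox21 qHTS format; PXR-Luc HepG2, 2,000/well, charcoal-stripped FBS 5%. Cpd exposure 24hr. Read: CellTiter-Fluor fluorescence, multiplexed with luciferase.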
Test [18] is described as follows: Caspase-3/7 induction in CHO-K1 cells by small molecules, qHTS cell viability counter screen (AID 1346979). Note: nearly all actives have a fitted effect of over 35% in size. Note: potency is the fitted concentration of half-maximal effect. The method in brief: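 CellTiter-Fluor viability check, qHTS format: wild-type CHO-K1, 16hr compound treatment, 1hr reagent incubation, fluorescence read.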
Test [19] can be described thus: Caspase-3/7 induction in HepG2 cells by small molecules, qHTS cell viability counter screen (AID 1346981). Note: nearly all actives have a fitted effect of over 30% in size. Note: potency is the fitted concentration of half-maximal effect. The procedure, abridged: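 Wild-type HepG2 cells (2,000/well) were allowed to settle for 5 hr at 37 C, 5% CO2, then dosed with compounds in DMSO by pin transfer. After 16 hr at 37 C, CellTiter-Fluor was added and fluorescence read 1 hr later.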
Test [20] concerns the target Nuclear receptor subfamily 1 group I member 2 (Homo sapiens) (UniProt O75469). Put plainly: Human pregnane X receptor (PXR) small molecule agonists, qHTS assay (AID 1346982). Note: nearly all actives have a fitted effect of over 35% in size. The method in brief: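 PXR-Luc HepG2 cells (CYP3A4 promoter-driven luciferase) were seeded in medium with 5% charcoal-stripped FBS, left 5 hr at 37 C, then exposed to compounds in DMSO for 24 hr. Luminescence was read after ONE-Glo addition.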

The structures appear in SMILES notation. Values joined by “and” are separate entries in the source; they are usually repeats but may differ in a detail not shown here. Equal entries are not always repeated. This is a selection; strong and weak results do not stand in their true shares. Results filed as inconclusive are left out. Some structures have more than one record in an assay (separate samples or runs), and their calls can disagree. Active and inactive are the calls of the source. Unless noted, calls come from the whole dose curve; as a rule, active = well fitted curve in the direction sought with a large enough effect in the repeat runs; inconclusive = weak or mixed curves; inactive = no such curve, though single readings can be large; an effect the other way counts as inactive or inconclusive.
% is set by controls: 0 for no effect and ±100 for the full control effect.

`Cc1cc([N+](=O)[O-])cc([N+](=O)[O-])c1O`: the Potency entry in test [1], in [2], in test [4], in [7], in test [8] and in test [12] was “inactive” throughout. For the same compound, the activation in test [3] is inactive: -3.86%; in test [5], inactive: 14.5% and inactive: 13.4%. Further, the caspase-3/7 activation in test [6] was inactive: -4.08% and inactive: -5.1%. Moreover, the Potency was active: 71 µM and inactive in test [9]; active: 20 µM and active: 21.8 µM in [10]; active: 58000 nM in test [11].

For the compound `O=[P+](Oc1ccccc1)Oc1ccccc1`, the Potency result in test [13], in test [14], in test [1], in [15], in test [16] and in test [2] was “inactive” each time. In addition, the Potency entry in test [4], in test [17], in [18], in [19], in test [20] and in test [7] was “inactive” each time. Also, the Potency result in test [8], in test [9], in test [11] and in test [12] was “inactive” throughout. Also, the activation was inactive: -0.678% in [3] and inactive: -0.607% in test [5]. Besides, in test [6], the caspase-3/7 activation is inactive: 0.574%.

As to `O=[As]c1ccccc1` (configuration not stated), the Potency in test [13] is active: 8630 nM; in [1], active: 770 nM; in [16], active: 2730 nM; in [2], active: 1740 nM; in test [17], active: 344 nM; in test [18], active: 68.6 nM. Also, the Potency was active: 864 nM in test [19] and active: 79.6 µM in test [9]. The activation in test [3] is inactive: -1.58%; in test [5], inactive: 16.8%. In addition, the Potency result in test [4], in test [20], in test [7], in [8] and in [10] was “inactive” throughout. Also, the caspase-3/7 activation in test [6] was inactive: -6.07%.

As to `COC(=O)Cl`, the Potency result in test [13], in test [14], in test [1], in test [15], in test [16] and in test [2] was “inactive” in each case. In addition, the Potency result in test [4], in test [17], in test [18], in [19], in test [20] and in [7] was “inactive” throughout. For the same compound, the Potency entry in test [8], in test [9], in test [10], in test [11] and in test [12] was “inactive” each time. Further, the results for the activation in [3] and in test [5] were inactive: 1.45% and inactive: 0.0583%, respectively. Also, the caspase-3/7 activation in [6] was inactive: 1.31%.
